Assay results reported in article PMC3440873 (Bioorganic & medicinal chemistry letters, 2011).

System: MDA-MB-231 breast adenocarcinoma cells

SMILES: CN[C@@H](C)C(=O)N[C@H](C(=O)N1CCC[C@H]1C(=O)Nc1cccc2ccccc12)C(C)C [Compound 9h]
- TRAIL sensitizing activity: strong TRAIL sensitizing activity
